Measurements taken from patent publication US20230148299A1, “FEM1B PROTEIN BINDING AGENTS AND USES THEREOF” (The Regents Of The University Of California, priority 2020, published 2023).

System: GFP-Fnip1 degron reporter
Test: GFP-Fnip1 degron reporter (GFP/mCherry) by flow cytometry
Assay type: cell-based
Details: GFP/mCherry ratio by FACS

## α-ketoglutarate
  stability of GFP^degron reporter: stabilized GFP^degron
